Drawing on ChEMBL document CHEMBL1136571, “Design, synthesis and structure-activity relationships of benzoxazinone-based factor Xa inhibitors” (Bioorg Med Chem Lett, 2003), this text covers IC50 for 2 molecules.

Amino acid sequences for entries named in this document (tags omitted). Residues count along the entry.
UniProt P00742, 41-179 limits assumed: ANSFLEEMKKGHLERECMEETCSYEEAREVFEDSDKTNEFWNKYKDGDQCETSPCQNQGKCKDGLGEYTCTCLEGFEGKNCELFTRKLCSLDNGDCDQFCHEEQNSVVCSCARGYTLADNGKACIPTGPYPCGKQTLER
UniProt P00742, 235-488 limits assumed: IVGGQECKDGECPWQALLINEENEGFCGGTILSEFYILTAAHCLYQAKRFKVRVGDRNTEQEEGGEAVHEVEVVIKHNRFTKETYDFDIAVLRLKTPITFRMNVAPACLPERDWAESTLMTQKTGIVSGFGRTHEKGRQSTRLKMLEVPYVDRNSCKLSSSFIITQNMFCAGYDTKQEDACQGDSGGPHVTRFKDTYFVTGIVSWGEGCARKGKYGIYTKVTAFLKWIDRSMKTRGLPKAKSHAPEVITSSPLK

As a reminder, the IC50 is the midpoint of a concentration-inhibition curve.

In the assay the target is Coagulation factor X (Homo sapiens, UniProt P00742). Nature of the assay: Inhibitory concentration to factor Xa.

Turning to `CC(=N)N1CCC(Oc2ccc3c(c2)OCC(=O)N3Cc2cccc(-c3cccc(C(=N)N)c3)c2)CC1`, the 50% inhibitory concentration (IC50) came to 4 nM.
In the case of `CS(=O)(=O)N(Cc1ccc2ccc(C(=N)N)cc2c1)c1ccc(C(=O)N2CCCC2)cc1` it was 1050 nM.
